Laboratory results taken from patent US20220370381A1 (published 2022).

Amino acid sequences for entries named in this document (tags omitted).
UniProt Q60492, whole entry: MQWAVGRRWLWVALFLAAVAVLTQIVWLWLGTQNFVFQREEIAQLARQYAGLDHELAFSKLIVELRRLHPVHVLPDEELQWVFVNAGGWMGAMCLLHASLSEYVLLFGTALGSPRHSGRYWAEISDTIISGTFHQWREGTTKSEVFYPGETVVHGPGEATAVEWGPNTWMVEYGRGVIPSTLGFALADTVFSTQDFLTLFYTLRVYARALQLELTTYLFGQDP

Target: Sigma 1 (Cavia porcellus, UniProt Q60492)
Assay: Sigma-1 receptor tissue bioassay, guinea pig vas deferens, agonist activity (twitch contraction)
Conditions: field-stimulated guinea pig vas deferens, compound alone

With (+)SKF-10,047 the “effect on twitch contraction amplitude” value was “concentration-dependent increase”.
